Earlier results on one compound are cited in publication PMC9080015 (RSC Advances, 2018).

The data set concerns the target T1, recombinant human CYP1B1 (Homo sapiens, UniProt Q16678).
T1 sequence (Q16678 1-543): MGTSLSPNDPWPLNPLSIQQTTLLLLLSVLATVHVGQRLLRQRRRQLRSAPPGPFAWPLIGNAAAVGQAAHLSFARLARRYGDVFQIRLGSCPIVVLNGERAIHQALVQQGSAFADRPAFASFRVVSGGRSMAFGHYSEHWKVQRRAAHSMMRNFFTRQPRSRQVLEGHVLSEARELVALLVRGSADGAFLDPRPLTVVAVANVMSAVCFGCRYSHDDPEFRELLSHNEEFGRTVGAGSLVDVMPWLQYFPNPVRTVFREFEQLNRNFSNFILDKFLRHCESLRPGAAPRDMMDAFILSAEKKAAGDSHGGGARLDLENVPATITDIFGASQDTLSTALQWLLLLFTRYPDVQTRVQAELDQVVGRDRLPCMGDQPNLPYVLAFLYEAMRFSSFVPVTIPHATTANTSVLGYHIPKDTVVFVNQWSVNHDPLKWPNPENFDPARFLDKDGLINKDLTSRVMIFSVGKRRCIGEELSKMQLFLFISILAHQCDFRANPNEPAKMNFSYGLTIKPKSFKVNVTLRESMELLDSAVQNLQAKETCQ
Conditions: read-out: IC50 CYP1B1; recombinant human enzyme; cited from earlier work.

Consider `O=c1cc(-c2ccccc2)oc2c1ccc1ccccc12` [ANF, α-Naphthoflavone], for which the IC50 was 5 nM.
